{"source": "patent US9855265B2", "about": "“Methods for treating cancer with TrkA receptor tyrosine kinase antagonists” (VM Oncology LLC, priority 2014, dated 2018)", "system": "PANC-1 subcutaneous human pancreatic cancer xenografts", "test": "PANC-1 Subcutaneous Human Pancreatic Cancer Xenograft Mouse Model", "settings": "Day 14; gemcitabine 10 mg/kg (alone or with Compound-12, see label)", "data": [{"compound": "Nc1ccn([C@@H]2O[C@H](CO)[C@@H](O)C2(F)F)c(=O)n1", "note": "[Gemcitabine, gemcitabine]", "values": [{"measurement": "Tumor volume (Mean ± SEM)", "result": "174 ± 9", "unit": "mm^3"}]}]}
